# Values of other authors as cited in paper PMC7589491, “Biomimetic Artificial Membrane Permeability Assay over Franz Cell Apparatus Using BCS Model Drugs” (Pharmaceutics, 2020).
# Conditions: fraction of dose absorbed in humans; cited from earlier work
structure (smiles),measurement,value
Cn1c(=O)c2[nH]cnc2n(C)c1=O [Theophylline],Fa(%),97%
